# Test system: Helianthus annuus CMS234B split embryonic axis (SEA) explants
# Assay: Negative selection and regeneration of sunflower SEA explants transformed with pCAMBIA-1301 on media containing Hygromycin
# Conditions: for No of PCR +ve explants / No. of explants Regenerating into shootlets / No. of explants surviving I selection (15 days) / No. of explants surviving I selection (21 days) / No. of explants surviving II selection (15 days) / PCR +ve Regenerants: 100 explants infected, pCAMBIA-1301
structure (smiles),measurement,setting,value
CN[C@@H]1C[C@H](N)[C@@H](O)[C@H](O[C@H]2O[C@H](CO)[C@H](O)[C@@H]3O[C@@]4(O[C@@H]23)O[C@H]([C@H](N)CO)[C@H](O)[C@H](O)[C@H]4O)[C@H]1O,No of PCR +ve explants,Hygromycin 15 mg/l,27
same,No. of explants Regenerating into shootlets,Hygromycin 15 mg/l,7
same,No. of explants surviving I selection (15 days),Hygromycin 15 mg/l,65
same,No. of explants surviving I selection (21 days),Hygromycin 15 mg/l,50
same,No. of explants surviving II selection (15 days),Hygromycin 15 mg/l,43
same,PCR +ve Regenerants,Hygromycin 15 mg/l,3
same,No of PCR +ve explants,Hygromycin 20 mg/l,20
same,No. of explants Regenerating into shootlets,Hygromycin 20 mg/l,5
same,No. of explants surviving I selection (15 days),Hygromycin 20 mg/l,58
same,No. of explants surviving I selection (21 days),Hygromycin 20 mg/l,42
same,No. of explants surviving II selection (15 days),Hygromycin 20 mg/l,28
same,PCR +ve Regenerants,Hygromycin 20 mg/l,2
same,No of PCR +ve explants,Hygromycin 25 mg/l,15
same,No. of explants Regenerating into shootlets,Hygromycin 25 mg/l,3
same,No. of explants surviving I selection (15 days),Hygromycin 25 mg/l,50
same,No. of explants surviving I selection (21 days),Hygromycin 25 mg/l,30
same,No. of explants surviving II selection (15 days),Hygromycin 25 mg/l,17
same,PCR +ve Regenerants,Hygromycin 25 mg/l,2
same,No of PCR +ve explants,Hygromycin 30 mg/l,12
same,No. of explants Regenerating into shootlets,Hygromycin 30 mg/l,1
same,No. of explants surviving I selection (15 days),Hygromycin 30 mg/l,45
same,No. of explants surviving I selection (21 days),Hygromycin 30 mg/l,22
same,No. of explants surviving II selection (15 days),Hygromycin 30 mg/l,12
same,PCR +ve Regenerants,Hygromycin 30 mg/l,1
same,shoots per explants,clustered and stunted shoots on Hygromycin medium,1-2
same,regeneration efficiency,even at low concentrations of Hygromycin,very low
same,appearance of buds put forth by explants,explants growing on Hygromycin media,stunted and hydric
same,toxic effect on the explants,"transformed SEA explants, Hygromycin compared with Xylose selection, after 2 weeks of selection",greater toxic effect on the explants than Xylose
